Compound activity as filed in PubChem BioAssay.
MC4R ag barr = activates human MC4R beta-arrestin recruitment. U2OS MC4R beta-arrestin complementation, luminescence; percent of melanotan II response, DMSO zero. AID 540308. P32245. 0.98% of 360,000 active. activation, % at 8.9 µM;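 active means activation above a per-plate cutoff, the mean activation of sample wells on that plate plus 3 SD, cut at about 8% in these data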
ARFGAP1 inh = rat ARFGAP1 inhibition. Q62848. Arfgap1-stimulated ARF1 GTP hydrolysis, GDP FP detection. inhibition, % at 16.5 µM. 0.26% of 360,000 active. AID 651572;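 active means inhibition above a per-plate limit, mean inhibition of low control wells plus 3 SD, cut at about 25% in these data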
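Material: rat Arfgap1 GAP domain (His6, aa 1-136), purified enzyme. Also added: human ARF1(Δ1-17)-GTP substrate. Compound dosing: 16.5 µM single point, 1.26% DMSO. Timing: enzyme reaction 120 min at 25 °C after 20 min preincubation. Signal: GDP detection by fluorescence polarization. Read-out basis: percent inhibition of GAP-stimulated GDP formation, scaled between DMSO and no-Arfgap1 medians.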
MC4R antagonist = human MC4R antagonism in cAMP assay; MC4R-expressing cells, MTII-stimulated cAMP, LANCE TR-FRET; 0.48% of 360,000 active; AID 540295; inhibition, % at 6.5 µM; P32245;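 active means inhibition above its plate's cutoff, the mean of tested wells on that plate plus 3 SD, cut at about 29% in these data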
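System: U2OS-MC4R stable cell line; Technique: Eu-cAMP/anti-cAMP TR-FRET, emission 671 nm; Repeats: single well per compound; Also added: Melanotan II; Dosing: one concentration, 6.5 µM nominal; Schedule: 30-min compound, 1-h challenge, 1-h detection, room temperature.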
NRP1-CendR mod = modulators of CendR peptide binding to human neuropilin-1 | FAM-RPARPAR peptide binding to NRP-1, fluorescence polarization | inhibition, % at 25 µM | 0.85% of 360,000 active | AID 602438;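 active means inhibition or corrected inhibition above about 18%, plus a signal ratio from 0.5 to 1.5, limit read from the data, passing the limit was not always enough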
ASAP1 GAP inh = ASAP1 ArfGAP inhibition. 0.19% of 360,000 active. Q9ULH1. ASAP1-stimulated ARF1 GTP hydrolysis, GDP FP detection. inhibition, % at 16.5 µM; in the data active means inhibition above about 25%
UUG fidelity = alters start codon recognition fidelity in yeast | S. cerevisiae UUG-firefly luciferase reporter, luminescence/redox ratio | activity score, % at 18.7 µM | hit rate 0.13% among 350,000 | AID 602363;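 active means replicate mean at a twofold rise or more, about +100% in these data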;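 further: firefly luciferase made from a UUG start codon reports start codon fidelity; reporter light over untreated wells divided by growth signal over untreated wells; some hits fall short of that in this replicate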
Large screens that a line does not name were inactive. The list is not random: actives were taken first. Their share in the collection is about 2.3%.

COc1ccc(/C=N/NC(=O)c2cc(C34CC5CC(CC(C5)C3)C4)[nH]n2)cc1OC	NRP1-CendR mod 22.3 (no result: UUG fidelity)
CO[C@H]1CN(C)C(=O)c2cc(NC(=O)C3CC3)ccc2OC[C@@H](C)NC[C@@H]1C	none (no result: MC4R ag barr, ARFGAP1 inh, MC4R antagonist, NRP1-CendR mod, ASAP1 GAP inh)
CCN(CC)S(=O)(=O)c1cc(NC(=O)COC(=O)CCC(=O)c2cccs2)ccc1C	NRP1-CendR mod 26.1 (no result: UUG fidelity)
C[C@@H]1CN([C@H](C)CO)C(=O)Cc2cc(NC(=O)Cc3cn(C)c4ccccc34)ccc2O[C@H]1CN(C)S(C)(=O)=O	none (no result: MC4R ag barr, ARFGAP1 inh, MC4R antagonist, NRP1-CendR mod, ASAP1 GAP inh)
N[C@@H](Cc1ccc(O)cc1)c1nnc([C@H](CO)NC(=O)C2CCNCC2)o1	NRP1-CendR mod 21.8
CN(C)[C@@H](CO)c1nnc([C@H](Cc2ccc(O)cc2)NC(=O)C2CCNCC2)o1	none
COc1ccc(/C(C#N)=C/c2cccnc2)cc1	NRP1-CendR mod 19.1
COc1ccc(C(C#N)=Cc2cc(OC)c(OC)c(OC)c2)cc1	none (no result: MC4R ag barr, MC4R antagonist, NRP1-CendR mod, UUG fidelity)
O=C(COc1ccccc1Br)Nc1ccccc1C(F)(F)F	MC4R ag barr 9.4 (no result: UUG fidelity)
CCN1CCN(CC(=O)Nc2ccc(C)cc2C)C(=O)C1=O	none
CCN1CCN(CC(=O)Nc2cccc(C)c2C)C(=O)C1=O	NRP1-CendR mod 21.2
CCOC(=O)C1CCN(C(=O)c2ccc(Cl)c(S(=O)(=O)N3CCCC3)c2)CC1	NRP1-CendR mod 30.4
O=C(c1ccc(Cl)c(S(=O)(=O)N2CCCC2)c1)N1CCN(c2ccccc2)CC1	NRP1-CendR mod 36.9
CCOC(=O)C1CCN(C(=O)c2ccc(Cl)c(S(=O)(=O)N3CCOCC3)c2)CC1	none
O=C(c1ccc(Cl)c(S(=O)(=O)N2CCCCC2)c1)N1CCN(c2ccccc2)CC1	none
O=C(C1CCN(S(=O)(=O)c2ccc(Cl)s2)CC1)N1CCN(c2ccccc2)CC1	NRP1-CendR mod 27.6
CC=Cc1ccc2n(c1=O)C[C@H]1[C@H](CO)[C@@H](C(=O)NCCc3cn(C)cn3)[C@@H]2N1C(=O)C1CC1 (mixture of isomers)	none (no result: MC4R ag barr, ARFGAP1 inh, MC4R antagonist, NRP1-CendR mod, ASAP1 GAP inh)
CO[C@H]1CN(C)C(=O)c2ccc(NS(=O)(=O)c3ccc(Cl)cc3)cc2OC[C@H](C)N(C(=O)NC(C)C)C[C@H]1C	none (no result: MC4R ag barr, ARFGAP1 inh, MC4R antagonist, NRP1-CendR mod, ASAP1 GAP inh)
O=C(O)CC12CC3CC(C1)CC(n1ncc(NCC4CCCO4)c(Cl)c1=O)(C3)C2 (centres undefined)	NRP1-CendR mod 25.0
CC(C)=CCC/C(C)=C/CNC(=O)CC1C[C@H](C(=O)N(C(C)C)C(C)C)[C@@]2(C)c3[nH]c4ccccc4c3CCN2C1=O (some centres undefined)	none
CC(C)=CCC/C(C)=C/CNC(=O)C[C@H]1C[C@H](C(=O)N(C(C)C)C(C)C)[C@@]2(C)c3[nH]c4ccc(Cl)cc4c3CCN2C1=O	NRP1-CendR mod 27.1
O=C(c1ccc(S(=O)(=O)Nc2ccccc2Cl)cc1)N1CCOCC1	NRP1-CendR mod 26.5
O=C(CN1CCOCC1)N[C@@H]1CC[C@H](CCNC(=O)C2CCCC2)O[C@@H]1CO	none (no result: MC4R ag barr, ARFGAP1 inh, MC4R antagonist, NRP1-CendR mod, ASAP1 GAP inh)
CCCCCCCCCOC(=O)C1N2C(=O)[C@@H](NC(=O)COc3ccccc3)[C@H]2SC1(C)C (some centres undefined)	NRP1-CendR mod 21.9
Cc1cc(COC(=O)C2N3C(=O)[C@@H](NC(=O)COc4ccccc4)[C@H]3SC2(C)C)on1 (some centres undefined)	none
O=C(Nc1cccc(C(F)(F)F)c1)OCCN1CCN(Cc2ccccc2)CCC1=O	NRP1-CendR mod 22.9
C[C@@H]1CN([C@@H](C)CO)C(=O)c2cc(NS(=O)(=O)c3ccc(Cl)cc3)ccc2O[C@@H](C)CCCCO[C@H]1CN(C)C(=O)c1ccccc1	none (no result: MC4R ag barr, ARFGAP1 inh, MC4R antagonist, NRP1-CendR mod, ASAP1 GAP inh)
Cc1cccc(-n2c(SCC(=O)N3CCCC3)nc3n[nH]c(C)c3c2=N)c1	none
CCC(Sc1nc2n[nH]c(C)c2c(=N)n1-c1cccc(Cl)c1)C(=O)NCCOC (centres undefined)	NRP1-CendR mod 28.9
C[C@@H]1CN([C@@H](C)CO)C(=O)c2cc(NS(=O)(=O)c3ccc(F)cc3)ccc2O[C@@H](C)CCCCO[C@H]1CN(C)C(=O)Nc1ccc(F)cc1	none (no result: MC4R ag barr, ARFGAP1 inh, MC4R antagonist, NRP1-CendR mod, ASAP1 GAP inh)
Cc1ccccc1S(=O)(=O)Nc1nc2ccccc2nc1NCCO	NRP1-CendR mod 30.7
